Assay results from ChEMBL document CHEMBL3745712, “Identification of N-(4-((1R,3S,5S)-3-Amino-5-methylcyclohexyl)pyridin-3-yl)-6-(2,6-difluorophenyl)-5-fluoropicolinamide (PIM447), a Potent and Selective Proviral Insertion Site of Moloney Murine Leukemia (PIM) 1, 2, and 3 Kinase Inhibitor in Clinical Trials for Hematological Malignancies” (J Med Chem, 2015).

Biological target: Serine/threonine-protein kinase pim-3 (Homo sapiens, UniProt Q86V86)

`Nc1ccc(C2CCCCC2)nc1C(=O)Nc1cnccc1[C@@H]1CCC[C@H](N)C1` showed a Ki of 14 nM.
